Source: patent US11099177B2, “Protein kinase allostery sensor and methods of making and using same” (REGENTS OF THE UNIVERSITY OF MINNESOTA, priority 2016, dated 2021)
Positions count from the first letter of the chain named.

Experiments:
Aurora A (AurA) [1] = molecular target: T1, Aurora A (AurA) (Homo sapiens, UniProt O14965, C290S/C393S/L225C/T287C); experiment: Time-resolved FRET ligand titration with labeled AurA (Example 1); type: binding; details: TR-FRET, ligand added to labeled AurA
T1 construct: human Aurora A, residues 122-403, containing an N-terminal hexahistidine tag; hexahistidine (N); made in house; host or cells: E. coli BL21-DE3-RIL
T1 sequence (O14965 122-403 L225C/T287C/C290S/C393S): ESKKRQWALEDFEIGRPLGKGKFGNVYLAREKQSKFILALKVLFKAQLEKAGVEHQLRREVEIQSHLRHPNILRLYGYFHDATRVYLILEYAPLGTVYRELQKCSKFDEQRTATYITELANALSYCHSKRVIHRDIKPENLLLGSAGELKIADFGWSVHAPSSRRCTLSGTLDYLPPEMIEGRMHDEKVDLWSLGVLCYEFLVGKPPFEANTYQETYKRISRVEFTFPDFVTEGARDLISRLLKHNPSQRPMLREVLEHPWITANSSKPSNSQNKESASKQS
Experimental: The resulting data were analyzed as described in Muretta et al. (Proc Natl Acad Sci USA, 2015, 112(47):14593-8). Results obtained with both methods were similar.
Direct waveform recording experiments were performed in a 384 well plate, and measurement was performed using a NovaFluor fluorescence lifetime plate reader (Fluorescence Innovations, Inc., Minneapolis, Minn.). Details of this instrument can be found in Cornea et al. (J Biomol Screen, 2013, 18:97-107). Experiments were performed at 50 nM AurA in ADP Quest Assay buffer+1% DMSO.
TCSPC experiments were performed using a spectrometer built by the group of Dr. David D. Thomas. Details of the instrument and analysis have been previously described in Agafonov et al. (Proc Natl Acad Sci, 2009, 106(51):21625-21630). Experiments were performed at 100 nM to 200 nM AurA in ADP Quest Assay buffer+1% DMSO.

Aurora A (AurA) [2] = molecular target: T2, Aurora A (AurA) (Homo sapiens, UniProt O14965, C290A/C393S/L225C/S284C); experiment: Time-resolved FRET lifetime assay, AurA biosensor labeled at L225C/S284C, 384-well plates; details: phosphorylated AurA in the presence of TPX2, no inhibitor
T2 sequence (O14965 122-403 L225C/S284C/C290A/C393S): T1 sequence (O14965 122-403 L225C/T287C/C290S/C393S) with S163C, C166T, S169A
T2 sequence (Q9ULW0 1-43 partner): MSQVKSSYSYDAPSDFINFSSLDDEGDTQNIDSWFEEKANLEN

Aurora A (AurA) [3] = molecular target: T3, Aurora A (AurA) (Homo sapiens, UniProt O14965, C290S/C393S/L225C/S284C); experiment: as above; details: unphosphorylated AurA in the presence of TPX2, no inhibitor
T3 sequence (O14965 122-403 L225C/S284C/C290S/C393S): T1 sequence (O14965 122-403 L225C/T287C/C290S/C393S) with S163C, C166T
T3 sequence (Q9ULW0 1-43 partner): T2 sequence (Q9ULW0 1-43 partner)

## TPX2: AurA-specific activator peptide, synthetic construct of human TPX2 residues 1-43
Aurora A (AurA) [1]
  change in average fluorescence lifetime: increase in average fluorescence lifetime
Aurora A (AurA) [2]
  inter-dye distance: 52 angstroms
Aurora A (AurA) [3]
  inter-dye distance: 48 angstroms
